The target in this assay is Bifunctional dihydrofolate reductase-thymidylate synthase (Plasmodium falciparum K1, UniProt P13922). As to the kind of experiment: Inhibition constant against wild-type PfDHFR (Plasmodium falciparum dihydrofolate reductase). In a few lines: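 Recombinant wild-type or mutant PfDHFR, expressed in bacteria (induction at 20 °C for 20 h) and purified on methotrexate-Sepharose. Spectrophotometric assay in 50 mM TES pH 7.0, 75 mM β-mercaptoethanol, 1 mg/mL BSA, with 100 μM each H2-folate and NADPH. Started with enzyme (0.6–1 nM). Ki from IC50 = Ki(1+[S]/Km), assuming competitive binding.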

Amino acid sequences for entries named in this document (tags omitted). A change or cut given only in a name is not applied to a line headed by its entry.
UniProt P13922: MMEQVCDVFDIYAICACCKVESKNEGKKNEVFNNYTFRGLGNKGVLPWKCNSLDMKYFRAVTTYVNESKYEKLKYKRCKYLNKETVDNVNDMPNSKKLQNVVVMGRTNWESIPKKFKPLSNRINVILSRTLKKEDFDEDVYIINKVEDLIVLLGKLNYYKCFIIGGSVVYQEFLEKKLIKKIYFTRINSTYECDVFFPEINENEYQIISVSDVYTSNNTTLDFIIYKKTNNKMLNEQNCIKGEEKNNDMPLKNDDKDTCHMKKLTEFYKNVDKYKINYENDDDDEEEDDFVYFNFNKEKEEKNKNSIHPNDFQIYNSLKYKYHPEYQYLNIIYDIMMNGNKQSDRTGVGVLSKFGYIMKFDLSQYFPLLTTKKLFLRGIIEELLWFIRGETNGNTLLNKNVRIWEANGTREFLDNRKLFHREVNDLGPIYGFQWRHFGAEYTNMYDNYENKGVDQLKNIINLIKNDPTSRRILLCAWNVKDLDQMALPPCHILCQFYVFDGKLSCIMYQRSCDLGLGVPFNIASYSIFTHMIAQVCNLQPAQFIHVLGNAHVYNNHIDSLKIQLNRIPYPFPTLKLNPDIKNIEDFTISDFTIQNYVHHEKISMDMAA

pKi: −log10 of the molar value.

Here are results for two compounds from ChEMBL document CHEMBL1145823, “Docking and database screening reveal new classes of Plasmodium falciparum dihydrofolate reductase inhibitors” (J Med Chem, 2003).

As usually defined, the pKi is −log10 of the Ki, conventionally taken in molar units. For the compound `N=C(S)N/N=C/c1ccc(Oc2ncc(C(F)(F)F)cc2Cl)cc1`, the pKi was 5.28. In turn, `COC(=O)c1sccc1-c1ccc(/C(C)=N/NC(N)=O)o1` gave a negative logarithm of the Ki (pKi) of 5.01.
